# Results taken from patent US20260083703A1, “INDOLINE DERIVATIVES AS SEROTONERGIC AGENTS USEFUL FOR THE TREATMENT OF DISORDERS RELATED THERETO” (MINDSET PHARMA INC., priority 2022, published 2026).
# By UniProt entry, the sequences of proteins in these tests, tags left out.
# UniProt P28223, whole entry: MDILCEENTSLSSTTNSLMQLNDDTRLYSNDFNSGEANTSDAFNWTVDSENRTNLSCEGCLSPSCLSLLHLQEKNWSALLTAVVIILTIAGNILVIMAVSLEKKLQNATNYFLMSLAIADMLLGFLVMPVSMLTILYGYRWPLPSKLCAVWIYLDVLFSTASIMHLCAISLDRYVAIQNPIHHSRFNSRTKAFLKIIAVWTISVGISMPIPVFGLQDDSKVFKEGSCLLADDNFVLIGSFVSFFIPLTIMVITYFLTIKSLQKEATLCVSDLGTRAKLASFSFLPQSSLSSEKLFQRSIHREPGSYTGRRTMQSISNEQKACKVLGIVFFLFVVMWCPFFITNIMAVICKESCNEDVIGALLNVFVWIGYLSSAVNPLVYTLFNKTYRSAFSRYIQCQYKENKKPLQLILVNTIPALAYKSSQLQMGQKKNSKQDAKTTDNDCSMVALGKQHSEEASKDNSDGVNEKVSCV
# Biological target: T1, human 5-HT2A (h5-HT2A) receptor (Homo sapiens, UniProt P28223)
# T1 construct: expressed in transfected cells; grown under G418 and hygromycin B selection
# Test: FLIPR assay, human 5-HT2A, agonist mode
# Format: cell-based
# Procedure: I. Assessment of the Effect of Exemplary Compounds of Formula I Targeting on Human 5-HT2A (h5-HT2A) Receptor Under Agonist Mode:
# I.c. Experimental Methods and Procedures: • 1. Cells were cultured in cell culture medium (DMEM containing 10% FBS, 1×penicillin-streptomycin 300 μg/ml G418 and 100 μg/ml hygromycin B) at 37° C., 5% (v/v) CO2. • 2. One day before the assays, the cells were detached using TrypLE™ Express and cells were counted using cell counter. Only cells with >85% viability were used for the assay. • 3. 20000 cells/well were seeded in 30 μl/well culture medium to a 384-well cell plate and cells were incubated overnight at 37° C., 5% (v/v) CO2. • 4. On the assay day, 2×dye solution was prepared following the manual of the FLIPR® Calcium 6 Assay Kit: i. The dye was diluted with assay buffer (20 mM HEPES in 1×HBSS, PH7.4); ii. Probenecid was added to the final concentration of 5 mM; iii. Vortex vigorously for 1-2 minutes. • 5. Medium was removed from cell plate by flicking the cell plate on towel papers. • 6. 10 μl of assay buffer and 10 μl of 2×dye solution was added to each well of the cell plate. • 7. […]
# • i. The normalized fluorescence reading (RFU) was calculated as shown below, where Fmax and Fmin stand for maximum and minimum of calcium signal during defined time window: RFU=Fmax−Fmin. • ii. […]
compound,measurement,value
COc1ccc2[nH]cc(CCN(C)C)c2c1 [Compound 5-MeO-DMT],5-HT2A (FLIPR) RFU@10 μM,"2,081 RFU"
